Source: US20050043534A1, “Modulators of ceramidase and methods of used based thereon” (priority 2001, published 2005)

Test system: MCF7 human breast carcinoma cells
Test: MTT cell viability assay, MCF7 cells
Type: cell-based
Conditions: 18 hours treatment
Protocol: The cells were contained at 37° C. in a humidified atmosphere containing 5% CO2 overnight. On Day 2, the cells were treated with the compound of interest which was dissolved in 100% ethanol. […] The control is a sample without the compound of interest.

Question: `CCCCCCCCCCCCC/C=C/[C@@H](O)[C@H](CO)NC(=O)NCCCCCC` [Urea-C6-ceramide, (2S,3R,4E)-N-[2-(1,3-dihydroxy-4E-octadecene)]-N′-hexane-urea] was tested. Which IC50 did it give?
Answer: 10 µM

Question: What about the “effect on cell growth and proliferation (in words)” value of the same molecule?
Answer: potent inhibitor of cell growth and proliferation
